Source: PubChem BioAssay (Tox21)
Where “and” joins values, the source holds several entries; their conditions need not be identical. Identical values can stand only once. The entries are a selection whose mix differs from that of the whole data set. Records with an inconclusive call do not appear. Calls of active or inactive are those of the source. Unless noted, calls follow the shape of the dose curve; as a rule, active = well fitted curve in the direction sought with a large enough effect in the repeat runs; inconclusive = weak or mixed curves; inactive = no such curve, though single readings can be large; an effect the other way counts as inactive or inconclusive.

Amino acid sequences for entries named in this document (tags omitted).
UniProt P04150, whole entry: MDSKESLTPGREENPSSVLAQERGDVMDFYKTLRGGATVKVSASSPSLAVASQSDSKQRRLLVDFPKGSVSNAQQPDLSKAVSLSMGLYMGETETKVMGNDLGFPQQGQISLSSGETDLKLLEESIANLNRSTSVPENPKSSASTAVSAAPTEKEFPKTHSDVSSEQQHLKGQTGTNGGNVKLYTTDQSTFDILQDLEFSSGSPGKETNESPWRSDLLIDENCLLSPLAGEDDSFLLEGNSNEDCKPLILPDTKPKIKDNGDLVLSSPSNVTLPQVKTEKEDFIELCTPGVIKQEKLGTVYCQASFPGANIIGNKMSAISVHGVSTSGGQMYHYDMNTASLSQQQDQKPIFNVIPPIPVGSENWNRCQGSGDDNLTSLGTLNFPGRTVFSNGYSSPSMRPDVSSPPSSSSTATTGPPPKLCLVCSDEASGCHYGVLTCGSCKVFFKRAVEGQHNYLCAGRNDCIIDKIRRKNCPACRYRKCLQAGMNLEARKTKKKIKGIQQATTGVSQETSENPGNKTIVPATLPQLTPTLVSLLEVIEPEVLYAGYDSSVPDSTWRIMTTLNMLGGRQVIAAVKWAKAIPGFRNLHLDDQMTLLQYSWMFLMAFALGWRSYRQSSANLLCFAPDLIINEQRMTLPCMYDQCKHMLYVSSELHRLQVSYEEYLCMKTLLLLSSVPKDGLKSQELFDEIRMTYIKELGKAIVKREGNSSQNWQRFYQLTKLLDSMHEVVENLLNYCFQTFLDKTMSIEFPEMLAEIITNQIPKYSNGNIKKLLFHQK

Columns and labels:
[1] = qHTS assay for small molecule agonists of the p53 signaling pathway (AID 651631; calls by dose curve; also: nearly all actives have a fitted effect of over 15% in size); settings: HCT-116 p53RE-bla reporter, beta-lactamase FRET ratio, 16 h
How it was run: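 Testing took place in human colorectal HCT-116 cells with stable p53RE-driven beta-lactamase. After 16 h of compound exposure at 37 °C, a FRET substrate was added and fluorescence recorded 2 h later.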

[2] = qHTS assay for small molecules that induce genotoxicity in human embryonic kidney cells expressing luciferase-tagged ATAD5 (AID 651632); settings: HEK293T ATAD5-luciferase induction, 16 h; series mostly up to 83.3 µM; also: nearly all actives have a fitted effect of over 15% in size
How it was run: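 HEK293T cells carrying a luciferase reporter tagged to ATAD5 were exposed to compound or DMSO vehicle for 16 hr at 37C, 5% CO2. Amplite was added, and after 30 min at room temperature luciferase activity was read as a marker of ATAD5 induction.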

[3] = qHTS assay for small molecule agonists of the p53 signaling pathway - cell viability (AID 651633; calls by dose curve; also: nearly all actives have a fitted effect of over 30% in size); settings: p53RE-bla HCT-116 viability, ATP luminescence, 16 h
How it was run: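 Viability counter-read: CellTiter-Glo luminescence (30 min, room temperature) in the same p53RE-bla plates. These plates had been exposed to compounds for 16 h at 37 C.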

[4] = qHTS assay for small molecules that induce genotoxicity in human embryonic kidney cells expressing luciferase-tagged ATAD5 - cell viability (AID 651634; calls by dose curve; also: nearly all actives have a fitted effect of over 25% in size); settings: HEK293T ATAD5-luc cells viability, CellTiter-Fluor, 15.5 h
How it was run: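 HEK293T cells expressing luciferase-tagged ATAD5 were exposed to compound or DMSO for 15.5 hr at 37C, 5% CO2. Viability was then read as live-cell protease activity by CellTiter-Fluor fluorescence after 30 min at 37C.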

[5] = qHTS assay for small molecule disruptors of the mitochondrial membrane potential - cell viability (AID 720634; calls by dose curve;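 also: human HepG2 liver cancer cells; nearly all actives have a fitted effect of over 20% in size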); settings: HepG2 viability, ATP luminescence (CellTiter-Glo), 1 h
How it was run: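 HepG2 cells seeded overnight at 37 C, then exposed to compound or DMSO for 1 hr at 37 C, 5% CO2. m-MPI dye added, then CellTiter-Glo for 30 min at room temperature; viability read as ATP luminescence.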

[6] = qHTS assay to test for compound auto fluorescence at 590 nm (red) in HepG2 cells (AID 720674); settings: HepG2 autofluorescence, red 540/590 nm, 1 h
How it was run: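 We screened compounds on adherent HepG2 cells, incubating them for an hour at 37 C in 5% CO2 before reading emission at 590 nm under 540 nm excitation; values reflect equivalence to Rose Bengal sodium fluorescence.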

[7] = qHTS assay to test for compound auto fluorescence at 535 nm (green) in HepG2 cells (AID 720675); settings: green autofluorescence 485/535 nm, 1 h
[8] = qHTS assay to test for compound auto fluorescence at 460 nm (blue) in HEK293 cells (AID 720678); settings: blue autofluorescence 405/460 nm
How it was run: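 Cells were seeded and left to adhere for 4-5 hr at 37C. Compounds were then pin-transferred. After an overnight incubation at 37C under 5% CO2, intrinsic fluorescence at 405/460 nm was measured and referenced to triamterene.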

[9] = qHTS assay to test for compound auto fluorescence at 590 nm (red) in HEK293 cells (AID 720679); settings: red autofluorescence 540/590 nm
How it was run: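 Each well held 2,000 HEK293 cells in medium containing 10% dialyzed FBS. Following 4-5 hr attachment at 37C, 23 nL test compound or DMSO was added; plates sat overnight, and red fluorescence (540/590nm) was recorded.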

[10] = qHTS assay to test for compound auto fluorescence at 460 nm (blue) in HEK293 cell free culture (AID 720681); settings: cell-free medium, autofluorescence 405/460 nm (blue)
How it was run: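 Blue fluorescence (Ex 405/Em 460 nm, triamterene-equivalent) was read immediately after pin transfer of compound or DMSO into medium (DMEM, 10% FBS) without cells.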

[11] = qHTS assay to test for compound auto fluorescence at 535 nm (green) in HEK293 cell free culture (AID 720682); settings: cell-free medium, green autofluorescence 485/535 nm, hits give high values
How it was run: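 DMEM + 10% FBS, cell-free; cpd or DMSO pinned in; Ex485/Em535 read; output as fluorescein-equivalent signal.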

[12] = qHTS assay to test for compound auto fluorescence at 590 nm (red) in HEK293 cell free culture (AID 720683); settings: cell-free medium autofluorescence, Ex540/Em590 red
How it was run: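 Red-channel autofluorescence of compounds in culture medium (DMEM, 10% FBS), no cells, measured at 540/590 nm. Rose Bengal sodium is the reference fluorophore for equivalence.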

[13] = qHTS assay to test for compound auto fluorescence at 590 nm (red) in HepG2 cell free culture (AID 720684); settings: cell-free medium autofluorescence, red 540/590 nm
How it was run: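 Plate contents were MEM with 10% FBS plus test compound or DMSO, no cells. Fluorescence was recorded with 540 nm excitation and 590 nm emission.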

[14] = qHTS assay to test for compound auto fluorescence at 460 nm (blue) in HepG2 cell free culture (AID 720685); settings: Cell-free culture medium, blue autofluorescence 405/460 nm
How it was run: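 Compound (23 nL) or DMSO pinned into cell-free MEM with 10% FBS; blue fluorescence read at 405/460 nm excitation/emission, expressed as auto-fluorescence equivalency to triamterene.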

[15] = qHTS assay to test for compound auto fluorescence at 535 nm (green) in HepG2 cell free culture (AID 720686); settings: Cell-free medium, green autofluorescence 485/535 nm
[16] = qHTS assay to test for compound auto fluorescence at 460 nm (blue) in HepG2 cells (AID 720687); settings: autofluorescence 405/460 nm, 1 h
How it was run: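 Blue-channel autofluorescence (Ex/Em 405/460 nm, triamterene-equivalent) was measured after 1 hr compound exposure at 37 C, 5% CO2. Cells were HepG2, plated overnight at 37 C in MEM plus 10% FBS.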

[17] = target: Glucocorticoid receptor (Homo sapiens) (UniProt P04150); experiment: qHTS assay to identify small molecule agonists of the glucocorticoid receptor (GR) signaling pathway (AID 720691; active = well fitted activation curve with a large enough effect in the signal ratio in the repeat runs, not every such curve was filed as active; the % refers to the signal ratio); settings: GR-bla HeLa, beta-lactamase reporter ratio, 18 h
[18] = target: Glucocorticoid receptor (Homo sapiens) (UniProt P04150); experiment: qHTS assay to identify small molecule antagonists of the glucocorticoid receptor (GR) signaling pathway (AID 720692; active = well fitted inhibition curve with a large enough effect in the signal ratio in the repeat runs, not every such curve was filed as active; the % refers to the signal ratio); settings: GR-bla HeLa, beta-lactamase FRET ratio, dexamethasone-stimulated, 18 h
[19] = qHTS assay for identifying genotoxic compounds that show differential cytotoxicity against isogenic chicken DT40 cell lines with known DNA damage response pathways - wild type cell line (AID 743012); settings: DT40 wild type chicken cells viability, CellTiter-Glo, 40 h; also: nearly all actives have a fitted effect of over 60% in size
How it was run: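 Parental DNA repair-proficient DT40 cells, 300 per well, were pre-incubated ~0.5 h at 37 C/5% CO2, pin-dosed with compounds in DMSO, then incubated 40 h. Viability was read as CellTiter-Glo luminescence after 30 min at room temperature.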

[20] = qHTS assay to test for compound auto fluorescence at 535 nm (green) in HEK293 cells (AID 720680); settings: green autofluorescence 485/535 nm
% is scaled to controls: 0 for no effect and ±100 for the full control effect.

OCCSCCO
inactive: activation ([1]; at 73.3 µM (top of the series)) 2.05% | activation ([1]; at 95.1 µM (top of the series)) -2.27% | Potency [2] | activity change, negative = cytotoxicity ([3]; at 83.3 µM (top of the series)) 15% | activity change, negative = cytotoxicity ([3]; at 95.3 µM (top of the series)) -7.76% | activity, negative = cytotoxicity ([4]; at 83.3 µM (top of the series)) 7.38% | activity, negative = cytotoxicity ([4]; at 95.3 µM (top of the series)) 17.7% | activity change, negative = cytotoxicity ([5]; at 83.2 µM (top of the series)) -2.66% | activity change, negative = cytotoxicity ([5]; at 95.3 µM (top of the series)) 3.55% | fluorescence, relative to Rose Bengal ([6]; at 46 µM (top of the series)) -0.311% | fluorescence, relative to Rose Bengal ([6]; at 95.7 µM (top of the series)) -0.148% | fluorescence, % of fluorescein control ([7]; at 46 µM (top of the series)) -0.0604% | fluorescence, % of fluorescein control ([7]; at 95.7 µM (top of the series)) 0.0121% | fluorescence, % of triamterene ([8]; at 46 µM (top of the series)) -0.0294% | fluorescence, % of triamterene ([8]; at 95.7 µM (top of the series)) -0.0061% | fluorescence, % of fluorescent control ([9]; at 46 µM (top of the series)) -0.0624% | fluorescence, % of fluorescent control ([9]; at 95.7 µM (top of the series)) -0.378% | fluorescence, % of fluorescent control ([10]; at 46 µM (top of the series)) -0.0207% | fluorescence, % of fluorescent control ([10]; at 95.7 µM (top of the series)) 0.0198% | activity change ([11]; at 46 µM (top of the series)) -0.0167% | activity change ([11]; at 95.7 µM (top of the series)) 0.0085% | fluorescence, % of fluorescent control ([12]; at 46 µM (top of the series)) -0.7% | fluorescence, % of fluorescent control ([12]; at 95.7 µM (top of the series)) 0.0963% | fluorescence, % of Rose Bengal ([13]; at 46 µM (top of the series)) -0.0211% | fluorescence, % of Rose Bengal ([13]; at 95.7 µM (top of the series)) -0.2% | fluorescence, % of fluorescent control ([14]; at 46 µM (top of the series)) 0.0413% | fluorescence, % of fluorescent control ([14]; at 95.7 µM (top of the series)) -0.0077% | fluorescence, % of fluorescein control ([15]; at 46 µM (top of the series)) 0.0079% | fluorescence, % of fluorescein control ([15]; at 95.7 µM (top of the series)) 0.0071% | fluorescence, % of fluorescent control ([16]; at 46 µM (top of the series)) 0.0321% | fluorescence, % of fluorescent control ([16]; at 95.7 µM (top of the series)) 0.149% | activation ([17]; at 62.4 µM (top of the series)) 3.75% | activation ([17]; at 79.2 µM (top of the series)) -0.505% | activity change, negative = inhibition ([18]; at 58.5 µM (top of the series)) 4.36% | activity change, negative = inhibition ([18]; at 78.9 µM (top of the series)) -4.36% | activity change, negative = cytotoxicity ([19]; at 68.4 µM (top of the series)) 6.87% | activity change, negative = cytotoxicity ([19]; at 95 µM (top of the series)) 1.55%

O=[N+]([O-])[O-].[NH4+]
inactive: Potency [2] | activity change, negative = cytotoxicity ([3]; at 83.3 µM (top of the series)) 15.3% and 14.2% and 10.5% | activity, negative = cytotoxicity ([4]; at 83.3 µM (top of the series)) 10.8% and 2.56% and -15.5% | fluorescence, relative to Rose Bengal ([6]; at 46 µM (top of the series)) -0.133% | fluorescence, relative to Rose Bengal ([6]; at 91.3 µM (top of the series)) 0.0467% and 0.24% | fluorescence, % of fluorescein control ([7]; at 46 µM (top of the series)) -0.0034% | fluorescence, % of fluorescein control ([7]; at 91.3 µM (top of the series)) 0.0096% and 0.0147% | fluorescence, % of triamterene ([8]; at 46 µM (top of the series)) 0.0346% | fluorescence, % of triamterene ([8]; at 91.3 µM (top of the series)) 0.0711% and 0.054% | fluorescence, % of fluorescent control ([9]; at 46 µM (top of the series)) -0.021% | fluorescence, % of fluorescent control ([9]; at 91.3 µM (top of the series)) -0.0708% and -0.571% | fluorescence, % of fluorescein ([20]; at 46 µM (top of the series)) 0.0191% | fluorescence, % of fluorescein ([20]; at 91.3 µM (top of the series)) 0.0159% and -0.0068% | fluorescence, % of fluorescent control ([10]; at 46 µM (top of the series)) 0.0501% | fluorescence, % of fluorescent control ([10]; at 91.3 µM (top of the series)) 0.0658% and 0.14% | activity change ([11]; at 46 µM (top of the series)) -0.0787% | activity change ([11]; at 91.3 µM (top of the series)) 0.0169% and 0.0092% | fluorescence, % of fluorescent control ([12]; at 46 µM (top of the series)) 0.08% | fluorescence, % of fluorescent control ([12]; at 91.3 µM (top of the series)) -0.0171% and 0.0915% | fluorescence, % of Rose Bengal ([13]; at 46 µM (top of the series)) 0.498% | fluorescence, % of Rose Bengal ([13]; at 91.3 µM (top of the series)) -0.0424% and 0.153% | fluorescence, % of fluorescent control ([14]; at 46 µM (top of the series)) 0.0549% | fluorescence, % of fluorescent control ([14]; at 91.3 µM (top of the series)) 0.0737% and 0.0417% | fluorescence, % of fluorescein control ([15]; at 46 µM (top of the series)) -0.0153% | fluorescence, % of fluorescein control ([15]; at 91.3 µM (top of the series)) 0.0211% and 0.0128% | fluorescence, % of fluorescent control ([16]; at 46 µM (top of the series)) -0.0235% | fluorescence, % of fluorescent control ([16]; at 91.3 µM (top of the series)) 0.0395% and 0.0204% | activation ([17]; at 62.4 µM (top of the series)) -2.32% and 0.435% and -1.04% | activity change, negative = inhibition ([18]; at 58.5 µM (top of the series)) -6.69% and 1.1% and 2.23% | activity change, negative = cytotoxicity ([19]; at 68.4 µM (top of the series)) -0.715% and -23.5% and 10.5%
